The results in this text go back to patent EP4837590A1, “ANTIBODY, AND IMMUNOCONJUGATE COMPRISING SAME AND TLR7/8 AGONIST AND USE THEREOF” (dated 2026).

The series has as its system A2780cisR-FRα cells. Put plainly: A2780cisR-FRα tumor-bearing mouse model. To be noted: 20 mg/kg, Q3-4Dx5, intraperitoneal injection.

For `CC(=O)O[C@H]1C(=O)[C@@]2(C)[C@H]([C@H](OC(=O)c3ccccc3)[C@]3(O)C[C@H](OC(=O)[C@H](O)[C@@H](NC(=O)c4ccccc4)c4ccccc4)C(C)=C1C3(C)C)[C@]1(OC(C)=O)CO[C@@H]1C[C@@H]2O`, the “body weight of the mice” value (FIG. 22B) is “except the paclitaxel group, there was no significant difference in body weight”. Under “day 26 after inoculation”, the “Tumor volume (mm^3)” value is listed as 793 mm^3.
